The values that follow come from ChEMBL document CHEMBL4184298, “Development of Potent Inhibitors of Receptor Tyrosine Kinases by Ligand-Based Drug Design and Target-Biased Phenotypic Screening” (J Med Chem, 2018).

One may read the IC50 as the concentration that inhibits the measured activity by half.

The target in the experiment is T1, Tyrosine-protein kinase Mer (Homo sapiens, UniProt Q12866).
T1 sequence (Q12866 whole entry): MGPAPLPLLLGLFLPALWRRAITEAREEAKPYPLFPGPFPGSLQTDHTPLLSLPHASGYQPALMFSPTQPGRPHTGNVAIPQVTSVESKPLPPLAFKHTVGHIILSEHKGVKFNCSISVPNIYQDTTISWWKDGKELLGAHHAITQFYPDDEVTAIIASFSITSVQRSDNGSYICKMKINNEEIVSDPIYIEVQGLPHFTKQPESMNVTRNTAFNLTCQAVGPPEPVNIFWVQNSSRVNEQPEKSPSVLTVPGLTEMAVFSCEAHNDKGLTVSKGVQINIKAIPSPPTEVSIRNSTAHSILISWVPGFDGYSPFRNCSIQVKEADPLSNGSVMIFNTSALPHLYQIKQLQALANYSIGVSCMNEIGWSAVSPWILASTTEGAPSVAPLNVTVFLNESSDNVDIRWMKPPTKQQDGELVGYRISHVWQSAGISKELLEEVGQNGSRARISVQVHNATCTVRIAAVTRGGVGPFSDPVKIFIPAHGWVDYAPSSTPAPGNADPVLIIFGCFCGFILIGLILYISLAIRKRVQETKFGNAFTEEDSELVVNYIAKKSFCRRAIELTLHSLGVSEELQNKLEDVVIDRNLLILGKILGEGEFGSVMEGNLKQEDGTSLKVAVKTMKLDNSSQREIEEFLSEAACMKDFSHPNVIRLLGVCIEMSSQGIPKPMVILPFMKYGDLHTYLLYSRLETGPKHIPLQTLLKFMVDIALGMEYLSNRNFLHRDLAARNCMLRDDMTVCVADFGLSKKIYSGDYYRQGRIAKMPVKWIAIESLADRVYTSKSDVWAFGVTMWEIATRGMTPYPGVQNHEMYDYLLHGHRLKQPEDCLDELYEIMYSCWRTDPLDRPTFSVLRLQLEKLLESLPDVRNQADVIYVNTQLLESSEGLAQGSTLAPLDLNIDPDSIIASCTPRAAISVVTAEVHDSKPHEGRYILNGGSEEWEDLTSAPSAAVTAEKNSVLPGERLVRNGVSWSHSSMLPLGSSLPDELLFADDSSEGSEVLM
The experiment can be described thus: Inhibition of wild-type human partial length MER (R557 to L884 residues) expressed in bacterial expression system using poly [Glu, Try] 4:1 as substrate in presence of [gamma-33P]ATP. Put shortly: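 Radiometric assay on recombinant kinase: ³³P incorporation into the kinase substrate was measured and activity was expressed relative to a DMSO control.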

For the compound `Nc1nc(Nc2ccc3c(c2)CC[C@@H](N2CCCC2)CC3)nn1-c1cc2c(nn1)-c1ccccc1CCC2` [BEMCENTINIB], the concentration for half-maximal inhibition (IC50) came to 15 nM.
